Biological target: T1, rat α 1B receptor (Rattus norvegicus, UniProt P15823)
T1 sequence (P15823 1-515): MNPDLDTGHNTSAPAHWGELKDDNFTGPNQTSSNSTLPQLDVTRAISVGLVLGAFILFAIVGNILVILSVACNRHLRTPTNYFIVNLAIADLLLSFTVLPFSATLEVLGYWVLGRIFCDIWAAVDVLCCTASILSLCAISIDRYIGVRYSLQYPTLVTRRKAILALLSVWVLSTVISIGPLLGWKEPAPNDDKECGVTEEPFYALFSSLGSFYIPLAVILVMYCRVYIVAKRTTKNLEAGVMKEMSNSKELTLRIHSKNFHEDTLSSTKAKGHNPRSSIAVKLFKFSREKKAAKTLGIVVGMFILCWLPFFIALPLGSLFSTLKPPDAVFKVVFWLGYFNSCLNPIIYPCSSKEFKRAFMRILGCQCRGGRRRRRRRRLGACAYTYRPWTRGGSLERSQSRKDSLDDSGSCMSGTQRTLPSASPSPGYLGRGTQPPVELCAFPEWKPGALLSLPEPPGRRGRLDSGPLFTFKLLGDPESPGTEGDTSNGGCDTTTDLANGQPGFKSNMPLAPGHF
Assay: cell-based

EC50 (EC50, 35° C., FIG. 6): 172 nM
EC50 (EC50, room temperature, FIG. 5): 1200 nM
Compound: Clc1ccc2nsnc2c1NC1=NCCN1 [Tizanidine]

From patent US7655396B1, “Methods for detecting receptor modulator activity” (Allergan, Inc., priority 2006, dated 2010)
